# Values of other authors in patent US10874724B2, “Enzymatic immunomodulation of solid tumors and uses thereof” (University of Houston System, priority 2015, dated 2020).
# By UniProt entry, the sequences of proteins in these tests, tags left out.
# UniProt P27487, whole entry, species assumed: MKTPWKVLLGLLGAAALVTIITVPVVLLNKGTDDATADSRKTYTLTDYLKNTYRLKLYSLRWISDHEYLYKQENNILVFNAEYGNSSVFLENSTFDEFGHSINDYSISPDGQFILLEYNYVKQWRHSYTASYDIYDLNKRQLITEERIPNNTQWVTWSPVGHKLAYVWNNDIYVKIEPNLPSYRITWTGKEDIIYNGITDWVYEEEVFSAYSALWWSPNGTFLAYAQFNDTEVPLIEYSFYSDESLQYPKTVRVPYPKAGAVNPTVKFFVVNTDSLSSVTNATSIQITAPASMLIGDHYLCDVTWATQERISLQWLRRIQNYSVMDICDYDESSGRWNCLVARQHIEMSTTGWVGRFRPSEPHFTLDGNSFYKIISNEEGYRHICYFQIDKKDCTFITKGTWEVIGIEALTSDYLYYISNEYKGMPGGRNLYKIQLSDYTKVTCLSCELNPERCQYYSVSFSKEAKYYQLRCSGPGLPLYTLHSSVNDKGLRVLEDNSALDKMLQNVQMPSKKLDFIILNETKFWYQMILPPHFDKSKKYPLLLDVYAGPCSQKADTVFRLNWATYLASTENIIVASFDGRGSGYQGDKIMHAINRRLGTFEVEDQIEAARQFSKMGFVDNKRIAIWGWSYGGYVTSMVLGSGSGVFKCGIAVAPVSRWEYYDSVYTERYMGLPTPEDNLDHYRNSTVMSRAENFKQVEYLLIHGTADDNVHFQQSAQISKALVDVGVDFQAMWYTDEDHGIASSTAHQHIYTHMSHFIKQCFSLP
# B1: ADA: Adenosine deaminase (EC 3.5.4.4), enzyme degrading Ado into inosine and ammonia (protein, UniProt P00813 2-363, looked up)
# Adenosine deaminase: AQTPAFDKPKVELHVHLDGSIKPETILYYGRRRGIALPANTAEGLLNVIGMDKPLTLPDFLAKFDYYMPAIAGCREAIKRIAYEFVEMKAKEGVVYVEVRYSPHLLANSKVEPIPWNQAEGDLTPDEVVALVGQGLQEGERDFGVKARSILCCMRHQPNWSPKVVELCKKYQQQTVVAIDLAGDETIPGSSLLPGHVQAYQEAVKSGIHRTVHAGEVGSAEVVKEAVDILKTERLGHGYHTLEDQALYNRLRQENMHFEICPWSSYLTGAWKPDTEHAVIRLKNDQANYSLNTDDPLIFKSTLDTDYQMTKRDMGFTEEEFKRLNINAAKSSFLPEDEKRELLDLLYKAYGMPPSASAGQNL
# B2: mADA: recombinant purified mouse adenosine deaminase (protein, UniProt P03958 2-352, looked up)
# Adenosine deaminase: AQTPAFNKPKVELHVHLDGAIKPETILYFGKKRGIALPADTVEELRNIIGMDKPLSLPGFLAKFDYYMPVIAGCREAIKRIAYEFVEMKAKEGVVYVEVRYSPHLLANSKVDPMPWNQTEGDVTPDDVVDLVNQGLQEGEQAFGIKVRSILCCMRHQPSWSLEVLELCKKYNQKTVVAMDLAGDETIEGSSLFPGHVEAYEGAVKNGIHRTVHAGEVGSPEVVREAVDILKTERVGHGYHTIEDEALYNRLLKENMHFEVCPWSSYLTGAWDPKTTHAVVRFKNDKANYSLNTDDPLIFKSTLDTDYQMTKKDMGFTEEEFKRLNINAAKSSFLPEEEKKELLERLYREYQ
# Biological target: CD26 (Homo sapiens, UniProt P27487)
# Conditions: independent of catalytic activity; cited from earlier work
row,Molecule,Binding to CD26
1,B1,nanomolar affinity
2,B2,does not bind
